This is a selection; strong and weak results do not stand in their true shares. Records with an inconclusive call do not appear. Active and inactive are the calls of the source. Calls come from the whole dose curve; as a rule, active = well fitted activation curve with a large enough effect; inconclusive = small, poorly fitted or top-dose-only effect; inactive = no such curve, though single readings can be large or run the other way.
Assay: A quantitative high throughput screen for small molecules that induce DNA re-replication in SW480 colon adenocarcinoma cells. For re-replication activation: % of control where 0% means no effect. Note: nearly all actives have a fitted effect of over 55% in size.
Details: Hoechst DNA content imaging, 48 h; series mostly up to 46.1 µM; re-replication activation: at the top concentration
With `Cc1nc2ccc3ccccc3c2s1.O=[N+]([O-])c1cc([N+](=O)[O-])c(O)c([N+](=O)[O-])c1` the “re-replication activation” value was inactive: -17.1%. In the case of `O=[N+]([O-])c1cc([N+](=O)[O-])c(-n2nnc3ccccc32)c([N+](=O)[O-])c1`, the “re-replication activation” value is reported as inactive: -1.53%. In the case of `COc1ccccc1OP(C)(=O)Nc1c(C)cccc1C` (configuration not stated), the “re-replication activation” value is reported as inactive: 2.12%. With `CN1CCCCC1COC(=O)C1(O)c2ccccc2CCc2ccccc21` (configuration not stated) the “re-replication activation” value was inactive: 12.1%. With `CP(=O)(Nc1ccc(SC(F)(F)F)cc1)Oc1ccccc1` (configuration not stated) the “re-replication activation” value was inactive: 11.2%. With `CCCOc1ccc(NP(C)(=O)Oc2ccc(Cl)cc2)cc1` (configuration not stated) the “re-replication activation” value was inactive: -11.4%. For `O=[N+]([O-])c1cc([N+](=O)[O-])c(Nc2nnnn2CCO)c([N+](=O)[O-])c1`, the “re-replication activation” value was inactive: 0.998%. For `CC1CCOC(=O)C=CC=CC(=O)OC2CC3OC4C5OC5(C)CCC4(COC(=O)C1O)C2(C)C31CO1` (configuration not stated), the Potency was active: 0.0651 µM. In the case of `O=[N+]([O-])OCC(CO[N+](=O)[O-])(CO[N+](=O)[O-])CO[N+](=O)[O-]`, the “re-replication activation” value is reported as inactive: 1.87%. For `CC1=NCCc2c1[nH]c1ccccc21.O=[N+]([O-])c1cc([N+](=O)[O-])c(O)c([N+](=O)[O-])c1`, the “re-replication activation” value was inactive: -122%. For `O=[N+]([O-])c1cccc([N+](=O)[O-])c1`, the “re-replication activation” value was inactive: -5.01%. For `CP(=O)(Nc1cccc(Br)c1)Oc1ccccc1` (configuration not stated), the “re-replication activation” value was inactive: -8.41%. In the case of `Cc1cc(C)cc(OP(C)(=O)Nc2ccccn2)c1` (configuration not stated), the “re-replication activation” value is reported as inactive: -2.55%. In the case of `Cc1ccc(C)c(NP(C)(=O)Oc2ccccc2)c1` (configuration not stated), the “re-replication activation” value is reported as inactive: 7.84%. With `COc1ccccc1OP(C)(=O)Nc1cccc(Br)c1` (configuration not stated) the “re-replication activation” value was inactive: -3.39%. With `Cc1cc(C)cc(OP(C)(=O)Nc2ccc(C)cc2C)c1` (configuration not stated) the “re-replication activation” value was inactive: -2.33%. With `O=[N+]([O-])[O-].[NH4+]` the “re-replication activation” value was inactive: -1.77%. In the case of `CCN(CC)CCCOC(=O)C(O)(c1ccccc1)c1ccccc1`, the “re-replication activation” value is reported as inactive: -2.58%. For `CCOC(=O)c1ccc(NP(C)(=O)Oc2ccccc2)cc1` (configuration not stated), the “re-replication activation” value was inactive: 3.52%. In the case of `COc1ccccc1OP(C)(=O)Nc1ccc(C)cc1` (configuration not stated), the “re-replication activation” value is reported as inactive: 0.741%. For `Cc1ccc(NP(C)(=O)Oc2ccccc2)c(C)c1` (configuration not stated), the “re-replication activation” value was inactive: 12.5%. With `COc1ccc(OP(C)(=O)Nc2cccc(F)c2)cc1` (configuration not stated) the “re-replication activation” value was inactive: -4.46%. With `Cc1cc(C)cc(OP(C)(N)=O)c1` (configuration not stated) the “re-replication activation” value was inactive: -3.3%. For `Cc1cccc(C)c1OP(C)(N)=O` (configuration not stated), the “re-replication activation” value was inactive: -1.24%. With `CP(=S)(Nn1cnnc1)Oc1ccccc1` (configuration not stated) the “re-replication activation” value was inactive: -15.5%. With `COc1ccccc1OP(C)(=O)Nc1ccccc1` (configuration not stated) the “re-replication activation” value was inactive: -6.38%. In the case of `CP(=O)(Nc1ccccc1Br)Oc1ccccc1` (configuration not stated), the “re-replication activation” value is reported as inactive: -1%. For `CCOP(C)(=S)SCC(=O)NC(C)C(=O)O` (configuration not stated), the “re-replication activation” value was inactive: -0.862%. With `CCOC(=O)c1ccc(NP(C)(=O)Oc2ccc(OC)cc2)cc1` (configuration not stated) the “re-replication activation” value was inactive: -0.764%. With `O=[N+]([O-])c1cc([N+](=O)[O-])c(O)c([N+](=O)[O-])c1.c1ccc(Oc2ccncc2)cc1` the “re-replication activation” value was inactive: 0.237%. With `CN(C)CCS` the “re-replication activation” value was inactive: -9.42%. With `CP(=O)(Nc1ccccn1)Oc1ccc(Cl)cc1` (configuration not stated) the “re-replication activation” value was inactive: 4.01%.

— PubChem BioAssay AID624297 (National Center for Advancing Translational Sciences (NCATS), 2012)
Potency is the fitted concentration of half-maximal effect.
